Results: patent US11160797B2, “Pyridinone derivatives and their use as selective ALK-2 inhibitors” (NOVARTIS AG, priority 2017, dated 2021)

Test system: HuH7 cells, BMP response element (BRE) luciferase reporter, BMP6 stimulated
Test: BMP signaling reporter gene assay
Assay type: cell-based
Details: Homo sapiens, Huh-7; BMP6 100 ng/ml; read-out: MSD HuH7 cell BMP reporter IC50

Row | SMILES | IC50 [nM]
1 | CCC(CC)n1cc(-c2cncc(-c3ccc4c(c3)CC(=O)N4C)c2)ccc1=O [Example 4, 1-methyl-5-(6′-oxo-1′-(pentan-3-yl)-1′,6′-dihydro-[3,3′-bipyridin]-5-yl)indolin-2-one] | 1050
2 | COCCN1C(=O)Cc2cc(-c3cncc(-c4ccc(=O)n(C(C)C)c4)c3)cnc21 [Example 27, 5-(1′-Isopropyl-6′-oxo-1′,6′-dihydro-[3,3′-bipyridin]-5-yl)-1-(2-methoxyethyl)-1H-pyrrolo[2,3-b]pyridin-2(3H)-one] | 2350
3 | CCC(C)n1cc(-c2cncc(-c3ccc4c(c3)CC(=O)N4C)c2)ccc1=O (stereo not drawn) [Example 7, 5-(1′-(sec-butyl)-6′-oxo-1′,6′-dihydro-[3,3′-bipyridin]-5-yl)-1-methylindolin-2-one] | 210
4 | COCCN1C(=O)Cc2cc(-c3cncc(-c4ccc(=O)n(C(C)C)c4)c3)ccc21 [Example 29, 5-(1′-Isopropyl-6′-oxo-1′,6′-dihydro-[3,3′-bipyridin]-5-yl)-1-(2-methoxyethyl)indolin-2-one] | 240
5 | CC(C)n1cc(-c2cncc(-c3ccc4c(c3)CCC(=O)N4C)c2)ccc1=O [Example 28, 6-(1′-Isopropyl-6′-oxo-1′,6′-dihydro-[3,3′-bipyridin]-5-yl)-1-methyl-3,4-dihydroquinolin-2(1H)-one] | 40
6 | CC(C)n1cc(-c2cncc(-c3ccc4c(c3)N(C)C(=O)C4)c2)ccc1=O [Example 26, 6-(1′-Isopropyl-6′-oxo-1′,6′-dihydro-[3,3′-bipyridin]-5-yl)-1-methylindolin-2-one] | 700
